Test results from patent EP4825857A1, “TRICYCLIC FUSED HETEROCYCLIC PDE3/4 DUAL INHIBITOR, AND PREPARATION AND USE THEREFOR” (dated 2026).

By UniProt entry, the sequences of proteins in these tests, tags left out. Chains listed by the source or under a name are the forms on record and can include a tag or linker. Residues count along the entry.
UniProt Q07343, 1-564 with tags or gaps: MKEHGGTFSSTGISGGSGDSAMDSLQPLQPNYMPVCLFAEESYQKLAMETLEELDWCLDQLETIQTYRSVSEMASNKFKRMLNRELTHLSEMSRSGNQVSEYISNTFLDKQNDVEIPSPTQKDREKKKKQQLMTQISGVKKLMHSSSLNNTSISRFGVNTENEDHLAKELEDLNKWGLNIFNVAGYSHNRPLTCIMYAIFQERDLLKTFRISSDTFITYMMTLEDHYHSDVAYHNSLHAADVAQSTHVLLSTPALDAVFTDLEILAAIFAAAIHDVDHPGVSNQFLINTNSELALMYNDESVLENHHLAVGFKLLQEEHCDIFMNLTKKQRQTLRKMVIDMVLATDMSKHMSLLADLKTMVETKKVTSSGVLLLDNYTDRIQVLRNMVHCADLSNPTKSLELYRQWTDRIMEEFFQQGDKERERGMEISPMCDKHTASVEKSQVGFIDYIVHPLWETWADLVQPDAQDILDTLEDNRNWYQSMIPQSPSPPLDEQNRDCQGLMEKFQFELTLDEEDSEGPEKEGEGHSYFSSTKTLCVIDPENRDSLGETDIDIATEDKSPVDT
UniProt Q13370, whole entry: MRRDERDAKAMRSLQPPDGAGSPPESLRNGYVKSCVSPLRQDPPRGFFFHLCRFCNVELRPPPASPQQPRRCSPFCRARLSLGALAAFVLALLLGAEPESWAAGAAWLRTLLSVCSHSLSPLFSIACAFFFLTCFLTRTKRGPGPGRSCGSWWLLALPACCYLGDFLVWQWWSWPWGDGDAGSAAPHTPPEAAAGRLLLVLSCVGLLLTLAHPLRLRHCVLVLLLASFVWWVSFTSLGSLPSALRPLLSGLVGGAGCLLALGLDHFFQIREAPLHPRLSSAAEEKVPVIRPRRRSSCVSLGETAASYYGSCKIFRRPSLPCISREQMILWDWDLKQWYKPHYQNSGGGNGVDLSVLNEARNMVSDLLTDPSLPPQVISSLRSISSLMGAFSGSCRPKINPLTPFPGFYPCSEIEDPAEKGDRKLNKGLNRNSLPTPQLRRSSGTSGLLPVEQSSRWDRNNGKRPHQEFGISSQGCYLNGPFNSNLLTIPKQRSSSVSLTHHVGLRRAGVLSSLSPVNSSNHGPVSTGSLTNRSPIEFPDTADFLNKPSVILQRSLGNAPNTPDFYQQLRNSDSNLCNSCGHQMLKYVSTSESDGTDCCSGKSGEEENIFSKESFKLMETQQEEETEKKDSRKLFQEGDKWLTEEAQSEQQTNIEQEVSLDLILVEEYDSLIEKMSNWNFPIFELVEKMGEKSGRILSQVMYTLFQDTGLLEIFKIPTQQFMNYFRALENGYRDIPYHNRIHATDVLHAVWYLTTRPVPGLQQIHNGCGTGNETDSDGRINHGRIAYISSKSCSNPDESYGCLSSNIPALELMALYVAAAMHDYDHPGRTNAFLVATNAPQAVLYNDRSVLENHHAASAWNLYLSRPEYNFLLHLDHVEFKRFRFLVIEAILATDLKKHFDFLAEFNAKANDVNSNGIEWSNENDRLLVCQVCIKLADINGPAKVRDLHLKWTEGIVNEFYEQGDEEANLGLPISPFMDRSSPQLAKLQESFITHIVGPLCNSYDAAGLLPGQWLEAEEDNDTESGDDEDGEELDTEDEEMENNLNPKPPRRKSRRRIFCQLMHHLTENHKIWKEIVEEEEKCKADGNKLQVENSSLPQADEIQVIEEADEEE
UniProt Q14432, whole entry: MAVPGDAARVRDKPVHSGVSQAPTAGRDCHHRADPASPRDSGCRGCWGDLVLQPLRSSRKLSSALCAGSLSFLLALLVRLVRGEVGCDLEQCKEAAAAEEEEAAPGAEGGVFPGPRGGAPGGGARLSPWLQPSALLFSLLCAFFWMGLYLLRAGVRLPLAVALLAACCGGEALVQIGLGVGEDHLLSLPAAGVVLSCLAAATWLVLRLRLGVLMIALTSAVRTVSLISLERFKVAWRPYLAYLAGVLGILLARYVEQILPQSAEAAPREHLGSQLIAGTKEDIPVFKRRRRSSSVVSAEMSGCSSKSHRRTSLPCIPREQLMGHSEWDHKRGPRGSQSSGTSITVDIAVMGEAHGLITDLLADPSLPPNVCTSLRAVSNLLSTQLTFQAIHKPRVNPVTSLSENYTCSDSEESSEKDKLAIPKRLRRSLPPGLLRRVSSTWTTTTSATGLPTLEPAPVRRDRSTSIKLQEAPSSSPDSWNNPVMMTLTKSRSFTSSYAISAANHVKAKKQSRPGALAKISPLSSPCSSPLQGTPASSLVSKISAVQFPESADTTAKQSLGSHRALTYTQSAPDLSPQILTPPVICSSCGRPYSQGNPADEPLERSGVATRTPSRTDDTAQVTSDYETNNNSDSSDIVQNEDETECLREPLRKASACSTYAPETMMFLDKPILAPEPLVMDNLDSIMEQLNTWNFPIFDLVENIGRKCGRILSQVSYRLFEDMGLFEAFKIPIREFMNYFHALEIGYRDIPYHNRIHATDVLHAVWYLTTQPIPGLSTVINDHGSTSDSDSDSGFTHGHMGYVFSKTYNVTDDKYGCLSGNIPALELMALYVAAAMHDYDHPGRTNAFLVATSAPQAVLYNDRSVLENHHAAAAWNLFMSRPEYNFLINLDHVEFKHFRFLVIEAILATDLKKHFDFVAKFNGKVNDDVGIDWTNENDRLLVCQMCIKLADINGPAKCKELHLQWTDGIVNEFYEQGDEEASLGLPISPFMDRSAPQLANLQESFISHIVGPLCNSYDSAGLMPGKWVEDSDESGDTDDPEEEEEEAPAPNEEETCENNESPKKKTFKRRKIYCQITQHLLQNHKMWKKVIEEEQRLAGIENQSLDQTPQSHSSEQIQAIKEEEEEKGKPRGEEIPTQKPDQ
UniProt Q08499, 303-809 limits assumed: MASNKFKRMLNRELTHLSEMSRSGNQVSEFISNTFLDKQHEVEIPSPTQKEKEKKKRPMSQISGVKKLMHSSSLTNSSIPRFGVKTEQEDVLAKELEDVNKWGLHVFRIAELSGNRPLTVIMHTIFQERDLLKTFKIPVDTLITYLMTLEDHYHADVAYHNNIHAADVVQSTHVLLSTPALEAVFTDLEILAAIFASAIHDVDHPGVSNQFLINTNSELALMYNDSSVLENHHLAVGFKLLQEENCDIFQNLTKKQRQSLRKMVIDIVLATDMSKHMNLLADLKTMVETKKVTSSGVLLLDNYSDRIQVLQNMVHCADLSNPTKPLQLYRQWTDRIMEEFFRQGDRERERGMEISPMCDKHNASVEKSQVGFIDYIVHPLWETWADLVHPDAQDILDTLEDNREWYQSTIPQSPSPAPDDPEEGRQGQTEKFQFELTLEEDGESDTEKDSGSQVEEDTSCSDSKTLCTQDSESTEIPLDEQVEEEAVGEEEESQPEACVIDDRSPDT

How the values were obtained:
Assay in all cases: PDE enzyme activity inhibition assay (fluorescence polarization, IMAP)
[1] = target: PDE4B2 (Homo sapiens, UniProt Q07343); conditions: read-out: PDE4B2; FP assay, Table 4
Procedure: (§1) The inhibitory activity of the compounds of the Examples against PDE enzymes was evaluated using a fluorescence polarization (FP) assay. RPL-554, the compound disclosed in Example 1 of CN100415743C, was used as the positive control. [drawing 182]
(§2) In a reaction buffer, i.e., 1× IMAP Reaction Buffer containing 0.1% BSA and supplemented with 1 mM DTT, a PDE enzyme solution and a substrate solution (FAM-cyclic AMP/cyclic AMP) were prepared. The positive control was prepared at an initial concentration of 1/10 µM for the PDE assay and was diluted 3-fold, with a 10+0 dose design. Using the acoustic liquid handling technology (Echo 655), 0.05 µL of each compound in 100% DMSO was transferred into a 384-well plate (Corning 4514), followed by centrifugation at 1,000 rpm for 1 min. Then, 2.5 µL of the PDE enzyme solution was transferred into the 384-well reaction plate, followed by centrifugation at 1,000 rpm for 1 min and incubation at 25 °C for 10 min. Subsequently, 2.5 µL of the substrate solution was transferred into the 384-well reaction plate, followed by centrifugation at 1,000 rpm for 1 min and incubation at 25 °C for 60 min. Then, 15 µL of a binding reagent mixture was transferred into the 384-well reaction plate, followed by centrifugation at 1,000 rpm for 1 min and incubation at 25 °C for 60 min. Finally, the FP signal was measured using a BMG PHERAstar FSX plate reader. IC50 values and nonlinear regression curve fitting were obtained using GraphPad Prism software.
(§3) The inhibitory activities of the compounds against PDE enzymes were evaluated using the FP method, with RPL-554 and compound D7 as control compounds. The detailed test method was the same as that described in PDE Enzyme Activity Inhibition Assay I. The structural formulae of RPL-554 and compound D7 are shown below. [drawing 183]

[2] = target: PDE3B (Homo sapiens, UniProt Q13370); conditions: read-out: PDE3B; FP assay, Table 4
Procedure: as §1, §2, §3

[3] = target: PDE3A (Homo sapiens, UniProt Q14432); conditions: read-out: PDE3A; FP assay, Table 4
Procedure: as §1, §2, §3

[4] = target: PDE4D2 (Homo sapiens, UniProt Q08499); conditions: read-out: PDE4D2; FP assay, Table 4
Procedure: as §1, §2, §3

Row | SMILES | IC50 [1] | IC50 [2] | IC50 [3] | IC50 [4]
1 | COc1cc2c(cc1OC)-c1cc(N(c3c(C(C)C)cc(C)cc3C(C)C)C(C)CNC(N)=O)nc(=O)n1CC2 (single isomer, unassigned) [Compound 23-2] | 85.3 nM | 0.171 nM | 0.136 nM | 63.4 nM
2 | COc1cc2c(cc1OC)-c1cc(N(c3c(C)cc(C)cc3C)C(C)CNC(=O)/C(C#N)=C(/C)O)nc(=O)n1CC2 (stereo not shown) | 598 nM | 0.136 nM | 0.0887 nM | 368 nM
3 | COc1cc2c(cc1OC)-c1cc(N(c3c(C)cc(C)cc3C)C(C)CNC(=O)c3cccc(C)n3)nc(=O)n1CC2 (stereo not shown) | 1.4 nM | 0.126 nM | 0.114 nM | 0.831 nM
4 | COc1cc2c(cc1OC)-c1cc(N(c3c(C)cc(C)cc3C)C3CC(NC(N)=O)C3)nc(=O)n1CC2 (single isomer, unassigned) [Compound 4-2] | 425 nM | > 40 nM | > 40 nM | 517 nM
5 | COc1cc2c(cc1OC)-c1cc(N(c3c(C)cc(C)cc3C)C(C)CNC(=O)c3cnc[nH]3)nc(=O)n1CC2 (single isomer, unassigned) [Compound 13-2] | 139 nM | 0.0768 nM | 0.0661 nM | 120 nM
6 | COc1cc2c(cc1OC)-c1cc(N(c3c(C)cc(C)cc3C)C(C)CNC(=O)OC(C)(C)C)nc(=O)n1CC2 (stereo not shown) | 489 nM | 0.103 nM | 0.045 nM | 275 nM
7 | COc1cc2c(cc1OC)-c1cc(N(c3c(C)cc(C)cc3C)C(C)CCNC(N)=O)nc(=O)n1CC2 (single isomer, unassigned) [Compound 3-2] | 152 nM | 0.1 nM | 0.0979 nM | 215 nM
8 | COc1cc2c(cc1OC)-c1cc(N(c3c(C)cc(C)cc3C)C(C)CNC(=O)c3cc(C)ccn3)nc(=O)n1CC2 (stereo not shown) | 4.9 nM | 0.135 nM | 0.125 nM | 2.86 nM
9 | COc1cc2c(cc1OC)-c1cc(N(c3c(C)cc(C)cc3C)C(C)CNC(=O)c3cnn[nH]3)nc(=O)n1CC2 (single isomer, unassigned) [Compound 9-1] | 18.1 nM | 0.139 nM | 0.0726 nM | 20 nM
10 | COc1cc2c(cc1OC)-c1cc(N(c3c(OC)cc(C)cc3OC)C(C)CNC(N)=O)nc(=O)n1CC2 (single isomer, unassigned) [Compound 24-2] | 76.5 nM | 12.7 nM | 7.63 nM | 58 nM
11 | COc1cc2c(cc1OC)-c1cc(N(c3c(C(C)C)cc(C)cc3C(C)C)C3CC(NC(N)=O)C3)nc(=O)n1CC2 (stereo not shown) | 44.1 nM | 17.8 nM | 6.06 nM | 30.7 nM
12 | COc1cc2c(cc1OC)-c1cc(N(c3c(C)cc(C)cc3C)C(C)CNC(=O)c3ncccc3C)nc(=O)n1CC2 (stereo not shown) | 1.01 nM | 0.122 nM | 0.108 nM | 0.568 nM
13 | COc1cc2c(cc1OC)-c1cc(N(c3c(C)cc(C)cc3C)C(C)C)nc(=O)n1CC2 | 814 nM | 0.165 nM | 0.241 nM | 199 nM
14 | COc1cc2c(cc1OC)-c1cc(N(CCNC(N)=O)c3c(C)cc(C)cc3C)nc(=O)n1CC2 | 87.2 nM | 0.173 nM | 0.125 nM | 60.7 nM
15 | COc1cc2c(cc1OC)-c1cc(N(c3c(C)cc(C)cc3C)C3CCN(C(N)=O)C3)nc(=O)n1CC2 (stereo not shown) | 130 nM | 0.122 nM | 0.077 nM | 98.7 nM
16 | COc1cc2c(cc1OC)-c1cc(N(c3c(C(C)C)cc(C)cc3C(C)C)C(C)CNC(N)=O)nc(=O)n1CC2 (single isomer, unassigned) [Compound 23-1] | 11.6 nM | 6.94 nM | 3.89 nM | 3.87 nM
17 | COc1cc2c(cc1OC)-c1cc(N(C(=O)CNC(N)=O)c3c(C)cc(C)cc3C)nc(=O)n1CC2 | 1290 nM | 27.3 nM | 13.9 nM | 1400 nM
18 | COc1cc2c(cc1OC)-c1cc(N(c3c(C)cc(C)cc3C)C(C)CNC(=O)c3ccn[nH]3)nc(=O)n1CC2 (single isomer, unassigned) [Compound 11-1] | 5.07 nM | > 40 nM | > 40 nM | 4.55 nM
19 | COc1cc2c(cc1OC)-c1cc(N(c3c(OC)cc(C)cc3OC)C(C)CNC(N)=O)nc(=O)n1CC2 (single isomer, unassigned) [Compound 24-1] | 201 nM | 4.47 nM | 2.91 nM | 319 nM

Row | SMILES | IC50 [1] | IC50 [2] | IC50 [3] | IC50 [4]
20 | COc1cc2c(cc1OC)-c1cc(N(c3c(C)cc(C)cc3C)C(C)CNC(=O)c3ncc[nH]3)nc(=O)n1CC2 (single isomer, unassigned) [Compound 10-1] | 35.5 nM | 0.0642 nM | 0.0477 nM | 40.2 nM
21 | COc1cc2c(cc1OC)-c1cc(N(c3c(C)cc(C)cc3C)C(C)CNC(=O)c3n[nH]nc3C)nc(=O)n1CC2 (single isomer, unassigned) | 1.23 nM | 0.101 nM | 0.126 nM | 1.42 nM
22 | COc1cc2c(cc1OC)-c1cc(N(c3c(C)cc(C)cc3C)C(C)CNC(=O)c3cncc(C)n3)nc(=O)n1CC2 (stereo not shown) | 5.13 nM | 0.11 nM | 0.0905 nM | 4.04 nM
23 | COc1cc2c(cc1OC)-c1cc(N(CCCNC(N)=O)c3c(C)cc(C)cc3C)nc(=O)n1CC2 | 3070 nM | 973 nM | 1210 nM | 1810 nM
24 | CCC(CNC(N)=O)N(c1cc2n(c(=O)n1)CCc1cc(OC)c(OC)cc1-2)c1c(C)cc(C)cc1C (single isomer, unassigned) [Compound 15-1] | 73.7 nM | 0.0824 nM | 0.0796 nM | 64.7 nM
25 | CCN(CC)CCN(c1cc2n(c(=O)n1)CCc1cc(OC)c(OC)cc1-2)c1c(C)cc(C)cc1C | 15200 nM | > 40 nM | 21.2 nM | 13800 nM
26 | COc1cc2c(cc1OC)-c1cc(N(c3c(C)cc(C)cc3C)C3CC3CNC(N)=O)nc(=O)n1CC2 (single isomer, unassigned) [Compound 7-3] | 139 nM | 0.149 nM | 0.0896 nM | 165 nM
27 | COc1cc2c(cc1OC)-c1cc(N(c3c(C)cc(C)cc3C)C(C)CNC(=O)c3cnn[nH]3)nc(=O)n1CC2 (single isomer, unassigned) [Compound 9-2] | 162 nM | 0.0818 nM | 0.0751 nM | 160 nM
28 | COc1cc2c(cc1OC)-c1cc(N(c3c(C)cc(C)cc3C)C3CC3CNC(N)=O)nc(=O)n1CC2 (single isomer, unassigned) [Compound 7-1] | 152 nM | 0.287 nM | 0.141 nM | 150 nM
29 | COc1cc2c(cc1OC)-c1cc(N(c3c(C)cc(C)cc3C)C3CC3CNC(N)=O)nc(=O)n1CC2 (single isomer, unassigned) [Compound 7-2] | 205 nM | 0.256 nM | 0.114 nM | 277 nM
30 | COc1cc2c(cc1OC)-c1cc(N(c3c(C)cc(C)cc3C)C(C)CNC(=O)c3ccc(C)cn3)nc(=O)n1CC2 (stereo not shown) | 6.3 nM | 0.108 nM | 0.107 nM | 5.75 nM
31 | CCC(CNC(N)=O)N(c1cc2n(c(=O)n1)CCc1cc(OC)c(OC)cc1-2)c1c(C)cc(C)cc1C (single isomer, unassigned) [Compound 15-2] | 21.8 nM | 0.0767 nM | 0.0756 nM | 13.2 nM
32 | CNC(=O)NCC(C)N(c1cc2n(c(=O)n1)CCc1cc(OC)c(OC)cc1-2)c1c(C)cc(C)cc1C (stereo not shown) | 23.3 nM | 0.134 nM | 0.078 nM | 17.2 nM
33 | COC(=O)NCC(C)N(c1cc2n(c(=O)n1)CCc1cc(OC)c(OC)cc1-2)c1c(C)cc(C)cc1C (stereo not shown) | 30.4 nM | 0.122 nM | 0.0999 nM | 23 nM
34 | [2H]C([2H])([2H])Oc1cc2c(cc1OC([2H])([2H])[2H])-c1cc(N(c3c(C)cc(C)cc3C)C(C)CNC(N)=O)nc(=O)n1CC2 (stereo not shown) | 52.4 nM | 0.106 nM | 0.114 nM | 41.8 nM
35 | COc1cc2c(cc1OC)-c1cc(N(c3c(C)cc(C)cc3C)C3CCC(NC(N)=O)CC3)nc(=O)n1CC2 (stereo not shown) | 64.8 nM | 0.0848 nM | 0.0712 nM | 29.5 nM
36 | CCCCN(c1cc2n(c(=O)n1)CCc1cc(OC)c(OC)cc1-2)c1c(C)cc(C)cc1C | 113 nM | 0.46 nM | 0.249 nM | 121 nM
37 | COc1cc2c(cc1OC)-c1cc(N(c3c(C)cc(C)cc3C)C3CCN(C(N)=O)CC3)nc(=O)n1CC2 | 29.2 nM | 0.0883 nM | 0.0695 nM | 23.3 nM
